Measurements as given in US9463252B2, “Auristatin drug linker conjugates” (priority 2008, dated 2016).

Assay: Tolerability (MTD) of conjugates in mice
Type: in vivo, mouse
Conditions: h1F6 conjugates; for tolerability at 100 mg/kg dose (in words): single dose 100 mg/kg
Experimental: The tolerability, measured as maximum tolerated dose (MTD), was determined in mice based on animals' weight loss after treatment. Animals were usually monitored for 14 days. A conjugate is considered to be tolerated at a determined dose if single iv treatment at such dose results in a transient weight loss of no more than 20% of initial body weight of animals and no other signs of toxicity are observed. […] AF-Met-(D)Lys and AF-Asn-(D)Lys conjugates were tolerated at doses as high as 100 mg/kg (FIG. 7). Corresponding conjugates of auristatins containing Methionine (AM) and Tryptophan (AW) at the C-terminal position of the drug were tolerated even better, up to 150 mg/kg (FIG. 8). […] Thus, the Auristatin-Dipeptide Drug Linkers provide ADCs with significant therapeutic window for therapeutic treatment (e.g., cancer).

Q: With “AF-Methionine-(D)Lysine-diaminoethane-propionyl maleimide [AF-Met-(D)Lys]” as the substance, how does the “tolerability at 100 mg/kg dose (in words)” value read?
A: The value was “tolerated”.

Q: Which “tolerability at 50 mg/kg dose (in words)” value (single dose 50 mg/kg, FIG. 15) does the source give for “AF-Methionine-diaminoethane-propionyl maleimide” here?
A: The value was “toxic”.

Q: Which “tolerability at 100 mg/kg dose (in words)” value does the source give for “MMAF-Methionine-(D)Lysine-diaminoethane-propionyl maleimide [MMAF-Met-(D)Lys]” here?
A: The value was “animal loss”.
